Assays:
human NNMT = human NNMT (Homo sapiens, UniProt P40261); assay: Fluorescence based NNMT enzymatic assay (human); settings: read-out: hNNMT IC50; recombinant human NNMT, fluorescence of an MNA derivative; tested form: HBr
Protocol: (§1) NNMT activity was measured by a fluorescence based assay as previously described. Briefly, Inhibitors were screened using human, mouse and monkey NNMT enzymes at different concentrations. The final assay reaction mixture contained a buffer of 100 mM Tris Hcl pH 7.5, 0.04% BSA, 2 mM Dithiothreitol and 1% DMSO. A fluorescent product 2, 7- naphthyridine was measured in a Tecan reader with excitation at 375 nm and emission at 430 nm. The IC50 values were determined by fitting the inhibition curves (percent inhibition versus inhibitor concentration) using a four parametric sigmoidal dose response in graph pad prism.

Sequences of proteins named here, by UniProt entry; tags and fusion partners are left off.
UniProt P40261, whole entry: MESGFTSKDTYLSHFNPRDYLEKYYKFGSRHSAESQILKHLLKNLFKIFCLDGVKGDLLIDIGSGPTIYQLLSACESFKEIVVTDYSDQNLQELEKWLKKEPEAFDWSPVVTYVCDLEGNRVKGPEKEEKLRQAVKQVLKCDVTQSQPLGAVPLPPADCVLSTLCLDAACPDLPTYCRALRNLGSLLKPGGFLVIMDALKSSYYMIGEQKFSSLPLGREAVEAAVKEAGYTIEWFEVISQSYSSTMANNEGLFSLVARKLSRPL
UniProt O55239, whole entry: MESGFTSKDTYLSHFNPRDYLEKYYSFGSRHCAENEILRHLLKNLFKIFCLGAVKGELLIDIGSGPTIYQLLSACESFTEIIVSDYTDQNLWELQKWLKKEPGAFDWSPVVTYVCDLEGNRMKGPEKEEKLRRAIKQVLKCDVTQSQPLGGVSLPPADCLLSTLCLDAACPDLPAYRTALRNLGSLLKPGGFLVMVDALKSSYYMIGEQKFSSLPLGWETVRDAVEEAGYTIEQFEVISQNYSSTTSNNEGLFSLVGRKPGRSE

mouse NNMT = mouse NNMT (Mus musculus, UniProt O55239); assay: Fluorescence based NNMT enzymatic assay (mouse); settings: read-out: mNNMT IC50; recombinant mouse NNMT, fluorescence of an MNA derivative; tested form: HBr
Protocol: as §1

`CCN1Cc2cc(F)cc3c2N(CC3)C1=N` was tested, and the IC50 (human NNMT) was 74 nM and the IC50 (mouse NNMT) was > 3000 nM.

`CN1Cc2cc(F)c(F)c3c2N(CCO3)C1=N` was tested, and the IC50 (human NNMT) was > 1000 nM.

Reference: article PMC9474883, “Novel tricyclic small molecule inhibitors of Nicotinamide N-methyltransferase for the treatment of metabolic disorders” (Scientific Reports, 2022)
